Hits are enriched below; roughly 2.5% of the tested compounds scored in any of these assays.
ClpP mod = qHTS Assay for Activators of ClpP; ATP-dependent Clp protease proteolytic subunit (Bacillus subtilis (strain 168)), P80244; Potency, µM (series often up to 57.5 µM), for the others: top-dose activity change, negative = active; purified B. subtilis ClpP, FRET peptide cleavage, 20 min; hit rate 1.9% among 340,000; active = well fitted falling curve with a large enough effect; inconclusive = small, poorly fitted or top-dose-only effect; inactive = no such curve, though single readings can be large or run the other way; note: potency is the fitted concentration of half-maximal effect; the source files actives as falling curves though it sought activators and does not explain the sign; nearly all actives have a fitted effect of over 65% in size
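ClpP 10 microg/mL final, pH 8 Tris/KCl buffer with BSA, glycerol, Tween-20; compound pinned in; FRET-FV substrate; RT 20 min; Ex320/Em430; ΔFRET vs ADEP 5.8 microM, DMSO, no enzyme.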
TrxR1 inh = inhibitors of rat thioredoxin reductase 1. O89049. recombinant rTrxR1, NADPH fluorescence consumption, selenite substrate. Potency, µM (highest dose often 114 µM), for the others: at the top dose activity change, negative = inhibition, hits mostly inhibitors. hit rate 1% among 390,000; note: potency is the fitted concentration of half-maximal effect; % is set by controls: 0 for no effect and ±100 for the full control effect; nearly all actives have a fitted effect of over 65% in size
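Rat TrxR1 (90 nM in the dispensed reagent) was pre-reduced with 400 uM NADPH for 5 min at room temperature, then incubated with compound for 15 min. After 400 uM selenite was added, NADPH fluorescence (Ex 340/Em 450 nm) was followed for 8 min.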
Apoferritin bind = candidate novel general anesthetic via apoferritin binding; Potency, µM (titrated, usually from 77.5 µM), for the others: at the top dose activity change, negative = displacement, most hits filed as inhibitors; apoferritin/1-aminoanthracene competitive binding, fluorescence; hit rate 0.074% among 350,000; AID 485281; note: potency is the fitted concentration of half-maximal effect; % is set by controls: 0 for no effect and ±100 for the full control effect; nearly all actives have a fitted effect of over 20% in size
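Apoferritin-based anesthetic binding model; compound displacement of fluorescent 1-AMA measured as endpoint fluorescence after 10 minutes at room temperature, scaled to free-ligand and complex controls.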
TrxR1 substrate = is turned over as a substrate by rat TrxR1. AID 588456. hit rate 0.01% among 390,000. Potency, µM (highest dose often 114 µM), for inactives: top-dose activity change, negative = substrate turnover. purified TrxR1 substrate turnover, NADPH consumption readout; note: potency is the fitted concentration of half-maximal effect; % is set by controls: 0 for no effect and ±100 for the full control effect; nearly all actives have a fitted effect of over 50% in size
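Rat TrxR1, dispensed at 90 nM, was prereduced with 400 uM NADPH (final) for 5 min at ~22 deg C, then incubated with compound 15 min before 400 uM selenite. A first-read NADPH fluorescence drop versus no-compound background flagged substrates.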
miR-21 reporter = raises the signal of a miR-21 reporter | HeLa miR-21 FLuc reporter, luciferase, 48 h | Potency, µM (doses to about 38.3 µM), for the others: at the highest dose reporter change, positive = more light | 340,000 tested, under 10 active | AID 2288; active = well fitted rising curve with a large enough effect; inconclusive = small, poorly fitted or top-dose-only effect; inactive = no such curve, though single readings can be large or run the other way;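 also: % of control where 0% means no effect; miR-21 action dims this reporter so a rising signal means less miR-21 action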
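HeLa cells stably expressing CMV-driven firefly luciferase with a downstream miR-21 binding sequence, endogenously expressing miR-21, were treated with titrations (up to about 40uM final) for 48 hours at 37 degree Celsius. Luciferase luminescence was read after lysis.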
* marks the source's active call; other numbers are inactive results; ? = inconclusive; / = no result; [ ] = remark or other dose. Unless noted, calls come from the whole dose curve; as a rule, active = well fitted curve in the direction sought with a large enough effect; inconclusive = small, poorly fitted or top-dose-only effect, or another doubt; inactive = no such curve, though single readings can be large; an effect the other way counts as inactive or inconclusive.

The chains behind the UniProt entries cited, without tags or fusion partners.
ATP-dependent Clp protease proteolytic subunit (Bacillus subtilis (strain 168)), P80244, UniProt P80244, whole entry, looked up: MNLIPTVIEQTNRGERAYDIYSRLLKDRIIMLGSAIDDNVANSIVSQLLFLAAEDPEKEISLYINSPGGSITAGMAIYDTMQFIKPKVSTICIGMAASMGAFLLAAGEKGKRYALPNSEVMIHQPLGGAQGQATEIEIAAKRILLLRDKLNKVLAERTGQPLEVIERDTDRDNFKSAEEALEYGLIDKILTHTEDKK

1	Cc1ccc(NC(=O)C2CCC(CNS(=O)(=O)c3ccc4c(c3)CCCC(=O)N4)CC2)c(C)c1 (configuration not stated)
2	Cc1ccc(-c2c3c([nH]c(=S)c2C#N)CCCC3)o1
3	CCSc1nc2c(c(-c3ccc(C)o3)c1C#N)CCCC2
4	N#Cc1c(-c2ccncc2)c2c([nH]c1=S)CCCC2
5	Cc1ccc(-c2c(C#N)c(N)nc3c2CCCC3)o1
6	O=C(Nc1cccc(F)c1)/C(=C\c1cccnc1)NC(=O)c1ccco1
7	Cc1cccc(NC(=O)/C(=C\c2ccco2)NC(=O)c2cccs2)c1
8	O=C(Nc1cccc(F)c1)/C(=C/c1ccco1)NC(=O)c1ccco1

entry no. | 1 | 2 | 3 | 4 | 5 | 6 | 7 | 8
Apoferritin bind | -9% | -19% | -13% | -19% | 39% | -2% | -22% | -18%
miR-21 reporter | 14% | -6% | -11% | -6% | 0% | -4% | -10% | -4%
TrxR1 inh | 5%[57.1 µM] | 45µM* | 13%[11.4 µM] | ? | 32µM* | 7%[57.1 µM] | 40µM* | 45µM*
TrxR1 substrate | 2%[57.1 µM] | -11% | -21%[11.4 µM] | 6%[57.1 µM] | 13% | 8%[57.1 µM] | -7% | -17%
ClpP mod | 1% | -1% | ? | -10% | 4% | / | 1% | -2%

9	Cc1ncc(CO)c2c1Oc1nc(-c3ccccc3)nc(SCC(=O)Nc3cccc(C(F)(F)F)c3)c1C2
10	COc1ccc(CN2CCc3c(c(=O)n4ncc(C(=O)N5CCN(c6ccccc6F)CC5)c4n3C)C2)cc1
11	CC(=O)Nc1ccccc1-c1nc2ccccc2n(C(C)C(=O)c2ccc(C)c(C)c2)c1=O (configuration not stated)
12	FC(F)(F)c1nc2ccccc2n2c(-c3ccc(Cl)cc3)nnc12
13	Cc1ccc(-c2nnc3c(C(F)(F)F)nc4ccccc4n23)cc1
14	FC(F)(F)c1nnc2c(Sc3ccc(Cl)cc3)nc3ccccc3n12
15	COc1ccccc1CNc1cc(-c2ccccc2)nc2nncn12
16	O=S(=O)(c1ccc2c(c1)OCCCO2)N1CCNCC1

entry no. | 9 | 10 | 11 | 12 | 13 | 14 | 15 | 16
Apoferritin bind | 66% | -14% | 17% | -8% | -12% | -4% | -13% | -5%
miR-21 reporter | 0% | 8% | -2% | -4% | -11% | -2% | ? | -6%
TrxR1 inh | -8% | 14%[57.1 µM] | 7% | 1%[57.1 µM] | -11% | 8% | 35µM* | 5%
TrxR1 substrate | -2% | 9%[57.1 µM] | -2% | 42%[57.1 µM] | 115% | 19% | -2% | 2%[57.1 µM]
ClpP mod | -4% | 4% | -7% | 13µM* | 13µM* | -4% | -21% | -1%

17	c1cc2c(cc1C1CCCN1)OCCCO2 (configuration not stated)
18	C(=C\c1nccc2ccccc12)/c1ccc(N2CCOCC2)cc1
19	CCCCOc1cccc(C(=O)Nc2cccc(-c3nc4ncccc4o3)c2C)c1
20	Cc1c(NC(=O)c2cccc(-c3cc4ccccc4oc3=O)c2)cccc1-c1nc2ncccc2o1
21	COc1cccc(NC(=O)c2cnn(-c3ccccc3)c2-n2cccc2)c1
22	Cc1c(C)n(Cc2ccccc2)c2ccc(C(=O)NCC(C)c3ccccc3)cc12 (configuration not stated)
23	CCn1c(C)c(C)c2cc(C(=O)NCc3ccc(OC(C)C)cc3)ccc21
24	CCOc1ccc(CNC(=O)c2ccc3c(c2)c(C)c(C)n3Cc2ccc(Cl)cc2)cc1

entry no. | 17 | 18 | 19 | 20 | 21 | 22 | 23 | 24
Apoferritin bind | -7% | / | ? | -12% | 43% | 2% | 33% | 53%
miR-21 reporter | -6% | / | ? | -30% | 1% | -8% | -12% | 9%
TrxR1 inh | 45µM* | 1% | 4% | 2% | 5%[57.1 µM] | 21%[57.1 µM] | 24%[57.1 µM] | 28%[57.1 µM]
TrxR1 substrate | 4% | -2% | 1% | 51% | -10%[57.1 µM] | 4%[57.1 µM] | 4%[57.1 µM] | 5%[57.1 µM]
ClpP mod | 1% | 0% | 9% | 22µM* | -2% | 20µM* | -19% | 16µM*

25	Cc1c(C)n(Cc2ccccc2)c2ccc(C(=O)NC(C)c3ccccc3)cc12 (configuration not stated)
26	COc1ccc(OC)c(NC(=O)NNC(=O)COc2ccc(-c3ccccc3)cc2)c1
27	O=C(COc1ccc(-c2ccccc2)cc1)NNC(=O)Nc1ccc(F)cc1F
28	CCOC(=O)c1cc(-c2ccc(OC)cc2)nc2c1c(C)nn2CCC#N
29	CCOc1ccc(CNC(=O)c2c(C)nn(-c3ccc(F)cc3)c2-n2cccc2)cc1
30	CC1CCCN(S(=O)(=O)c2ccc(NC(=O)c3cccc(-n4cnnn4)c3)cc2)C1 (configuration not stated)
31	Cc1ccc2cc(C3CC(c4ccco4)=NN3S(C)(=O)=O)c(Cl)nc2c1 (configuration not stated)
32	CC(=O)Oc1ccccc1/C=C/c1ccc2ccccc2[n+]1C

entry no. | 25 | 26 | 27 | 28 | 29 | 30 | 31 | 32
Apoferritin bind | 2% | -15% | -4% | -20% | 34% | 14µM* | 1% | 4%
miR-21 reporter | -3% | 6% | -5% | -1% | 27% | 18% | -10% | -34%
TrxR1 inh | 22%[57.1 µM] | 0% | -4% | 61% | 13% | 27% | 79µM* | 20µM*
TrxR1 substrate | 4%[57.1 µM] | 0% | -7% | 218% | -6% | 3% | -4% | -13%
ClpP mod | ? | 4% | 32µM* | 25µM* | 1% | -2% | / | -18%

33	COC(=O)c1ccc(COc2ccc3c4c(c(=O)oc3c2)CCC4)o1
34	Cc1oc(C(=O)O)cc1COc1ccc2c3c(c(=O)oc2c1)CCC3
35	COC(=O)c1cc(COc2ccc3c4c(c(=O)oc3c2)CCCC4)c(C)o1
36	O=C(NC(=S)NCc1ccc(F)cc1)c1ccccc1
37	O=C(NCc1ccccc1)c1ccc(-c2ccc(F)cc2)o1
38	COc1cccc(C(=O)Nc2c3c(nn2-c2ccc(C)cc2C)CS(=O)(=O)C3)c1OC
39	COc1cccc2cc(-c3nc(Nc4cccc(C)c4C)sc3C)c(=O)oc12
40	CCS(=O)(=O)N1CCC(C(=O)Oc2ccccc2Br)CC1

entry no. | 33 | 34 | 35 | 36 | 37 | 38 | 39 | 40
Apoferritin bind | -3% | -2% | -13% | -8% | -8% | -6% | -22% | -10%
miR-21 reporter | 2% | 0% | 0% | -34% | -28% | 11% | 15% | 6%
TrxR1 inh | 13%[57.1 µM] | -13% | 16% | 13µM* | ? | -3%[57.1 µM] | 20%[57.1 µM] | 9%[57.1 µM]
TrxR1 substrate | 27%[57.1 µM] | 45% | 15% | -13% | 9% | 2%[57.1 µM] | 4%[57.1 µM] | 6%[57.1 µM]
ClpP mod | 3.2µM* | 28µM* | -15% | -2% | 28µM* | -3% | 1% | 28µM*

41	CCCCCCNC(=O)Cc1c(O)c2ccccc2[nH]c1=O
42	CCN(CC)C(=O)Cc1c(O)c2ccccc2[nH]c1=O
43	CCCCNC(=O)Cc1c(O)c2ccccc2[nH]c1=O
44	CC(C)NC(=O)Cn1c(=O)nc(-c2ccccc2)c2ccccc21
45	COC(=O)C1=C(C)NC(=S)NC1c1ccc(-c2cc(Cl)ccc2Cl)o1 (configuration not stated)
46	COc1ccc(C(=O)NC(=S)Nc2cccnc2)cc1[N+](=O)[O-]
47	CCOc1ccc(C(=O)NC(=S)Nc2cccnc2)cc1[N+](=O)[O-]

entry no. | 41 | 42 | 43 | 44 | 45 | 46 | 47
Apoferritin bind | 4% | -2% | -10% | 57% | -12% | -1% | -2%
miR-21 reporter | 2% | 3% | 1% | 0% | 17% | 3% | -2%
TrxR1 inh | 13%[57.1 µM] | 29% | 21% | 13%[57.1 µM] | 32µM* | 10µM* | -43%
TrxR1 substrate | 15%[57.1 µM] | 22% | 29% | 6%[57.1 µM] | 3% | -3% | -6%
ClpP mod | 28µM* | 4% | 20µM* | -3% | / | -1% | /

Compound activity: PubChem, National Center for Advancing Translational Sciences (NCATS)
